In publication PMC6817905, “Inhibition of translation termination by small molecules targeting ribosomal release factors” (Scientific Reports, 2019):
In brackets after ≈: the same amount, converted by molar mass. Marks after values point to notes of the source that are not given here.

The chains behind the UniProt entries cited, without tags or fusion partners. Where a name states a change or a piece, a line headed by the entry shows the natural chain unless it says otherwise.
UniProt P07012, whole entry: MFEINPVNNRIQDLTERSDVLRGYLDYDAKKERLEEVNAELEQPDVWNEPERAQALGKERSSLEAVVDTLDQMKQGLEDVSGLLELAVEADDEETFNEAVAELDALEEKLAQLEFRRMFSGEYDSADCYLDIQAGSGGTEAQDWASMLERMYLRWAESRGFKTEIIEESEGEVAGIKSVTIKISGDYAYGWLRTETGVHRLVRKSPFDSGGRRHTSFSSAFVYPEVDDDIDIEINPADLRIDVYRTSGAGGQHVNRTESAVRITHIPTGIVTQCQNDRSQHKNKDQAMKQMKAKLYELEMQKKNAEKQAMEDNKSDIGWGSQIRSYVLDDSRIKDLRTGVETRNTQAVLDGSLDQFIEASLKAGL
UniProt P0A7I0, whole entry: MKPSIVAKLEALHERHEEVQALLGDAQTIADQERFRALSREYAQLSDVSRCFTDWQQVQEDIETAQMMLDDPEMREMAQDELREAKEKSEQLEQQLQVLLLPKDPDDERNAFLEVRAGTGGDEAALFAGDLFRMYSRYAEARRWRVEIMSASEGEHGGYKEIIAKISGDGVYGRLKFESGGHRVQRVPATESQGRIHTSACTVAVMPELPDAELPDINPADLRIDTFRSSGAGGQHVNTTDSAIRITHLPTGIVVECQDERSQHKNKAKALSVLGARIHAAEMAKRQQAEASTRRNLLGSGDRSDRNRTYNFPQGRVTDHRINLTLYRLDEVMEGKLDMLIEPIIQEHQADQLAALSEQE

Assays:
[1] = tested on: Escherichia coli strain MG1655; experiment: MIC on bacterial growth, wt E. coli (broth micro-dilution); assay type: cell-based; conditions: initial screen, > = compound precipitated at higher concentrations in cell culture media
Procedure: (§1) The four different strains analyzed were wild type (wt) Staphylococcus aureus (strain ATCC 29213), wt Escherichia coli (strain MG1655, K12), a drug-hypersensitive E. coli lpxC mutant D22 (strain MG1655) and an efflux-defective E. coli ΔtolC mutant (strain MG1655). These were grown in cation-adjusted Mueller Hinton II media (MH II, Nordic Biolabs), the standard medium for antibiotic susceptibility testing. For overnight cell cultures one colony from a MH II (Nordic Biolabs) plate was inoculated in 1 ml MH II media in a 10 ml tube and the bacteria was incubated at 37 °C shaking at 190 rpm. Cells from the overnight culture was used for MIC determinations and time-kill experiments.
(§2) The minimal inhibitory concentrations (MIC) of the drugs were measured in 96-well round-bottom microtiter plates using cation-adjusted Mueller-Hinton II (MH II) media. All measurements were done with at least three biological replicates. Briefly, bacterial colonies from a non-selective agar plate were re-suspended in 0.9% NaCl to 0.5 McFarland ( ≅1.5×10^8 cfu/ml). The cell suspension was further diluted to ≅5×10^5 cfu/ml (50 µl of bacterial suspension to 10 ml of MHII) and then 90 µl of cell suspension ( ≅5×10^5 […]) was added to each well. […] The MIC value was determined visually as the lowest concentration of drug that inhibited growth.

[2] = tested on: E. coli ΔtolC mutant (strain MG1655); experiment: MIC, efflux-defective E. coli ΔtolC mutant; assay type: cell-based, Escherichia coli; conditions: broth micro-dilution
Procedure: as §1, §2

[3] = tested on: E. coli lpxC mutant D22 (strain MG1655); experiment: MIC, drug-hypersensitive E. coli lpxC mutant; assay type: cell-based, Escherichia coli; conditions: broth micro-dilution
Procedure: as §1, §2

E. coli 70S ribosome = experiment: Di- and tripeptide formation assay (peptide bond formation and translocation); conditions: for Apparent rate constant ka, tripeptide bond formation: fMet-Leu-Leu; for Apparent rate constant ka, tripeptide bond formation / Apparent rate constant ka, dipeptide bond formation: 0.5 mM compound, 2% DMSO, quench flow; for Apparent rate constant ka, dipeptide bond formation: fMet-Leu; for Inhibition of dipeptide or tripeptide formation: highest concentration 500 μM, 37 °C
Procedure: Ribosomal activity for peptide bond formation and translocation was tested by di- and tripeptide formation assays. For that, an initiation complex and an elongation mix were first prepared in HEPES-Polymix buffer (pH 7.5). The initiation complex contained E. coli 70S ribosome (1 μM), IF1, IF2 and IF3 (all 2 μM), XR7 mRNA encoding Met-Leu-Leu (10 μM) with sequence UAAGGAG[…] and 1 μM [^3H]-fMet-tRNA^fMet. The elongation mix was prepared by mixing 10 μM EF-Tu, 10 μM EF-Ts, 10 μM EF-G, 10 μM tRNA^Leu, 0.5 mM Leu amino acid and 1 unit of Leu-tRNA synthetase. All reactions contained 1 mM GTP and ATP, 10 mM phosphoenol pyruvate, 50 mg/ml pyruvate kinase and 2 mg/ml myokinase. To test the effects, 0.5 mM of the anti-RF2 compounds 115 and 161 was added to both IC and EC together with DMSO as control. Both the mixes were incubated separately at 37 °C for 15 min. The reaction was started by mixing equal volumes of the IC and EC at 37 °C in a quench flow apparatus and was quenched by mixing 17% formic acid after different time points. The peptides were isolated from the ribosome by KOH treatment and applied to reverse phase HPLC separation with in-line radioactivity detection as described earlier.

[4] = tested on: ΔtolC efflux-defective E. coli; experiment: Time-kill assay, E. coli ΔtolC; assay type: cell-based, Escherichia coli; conditions: tolC-defective E. coli; 1x or 2x MIC; cell number decreased during first four hours, regrowth after about eight hours
Procedure: To determine if the compounds are bacteriostatic or bactericidal, time-kill assays were performed with wt S. aureus and a ΔtolC efflux-defective E. coli. The initial inoculums were diluted from triplicate biological replicates of overnight cell cultures inoculated with one colony in 1 ml MH II medium. The cell inoculum was diluted 1:1000 in 1 ml MH II medium and the cell culture was allowed to recover for 30 minutes before the compounds were added at a final concentration of 1x MIC (250 mg l^−1 for compound 115 and 125 mg l^−1 for compound 161 for both bacterial strains) or 2x MIC. As a control of the possible effect of DMSO on cell growth, the positive growth controls (three biological replicates) contained the same DMSO concentration as the cells with compound added (2x MIC). Samples (20 µl) were withdrawn before the compound was added and also after 1, 2, 4, 8 and 24 h after addition. The cells were diluted in 0.9% NaCl before they were plated on non-selective agar plates using glass beads. Colonies were counted after approximately 20 h.

E. coli RF2 = E. coli RF2 (Escherichia coli, UniProt P07012); conditions: pH 6.5
RF1 from E. coli = RF1 from E. coli (Escherichia coli, UniProt P0A7I0)
RF2 = RF2 (Escherichia coli, UniProt P07012)

CC1CCN(Cc2csc(NC(=O)CNC(=O)c3ccc(Cl)c(Cl)c3)n2)CC1
MIC E. coli [1]: >500^a mg l^−1
MIC E. coli ΔtolC [2]: 250 mg/L (≈ 566 µM)
MIC E. coli lpxC [3]: 64 mg/L (≈ 145 µM)
Apparent rate constant ka, tripeptide bond formation (E. coli 70S ribosome): about 4 s^−1
Apparent rate constant ka, dipeptide bond formation (E. coli 70S ribosome): about 14 s^−1
Inhibition of dipeptide or tripeptide formation (E. coli 70S ribosome): no inhibition
Bacteriostatic or bactericidal, time-kill [4]: bactericidal
Kd (E. coli RF2): 4.2 µM
Kd (RF1 from E. coli): 96.5 µM
IC50 (RF2): 47.5 µM
Ki (RF2): 3.3 µM

CC1CC(C)CN(Cc2csc(NC(=O)CNC(=O)c3ccc(C(C)(C)C)cc3)n2)C1 (stereo not shown)
MIC E. coli [1]: >500^a mg l^−1
MIC E. coli ΔtolC [2]: 125 mg/L (≈ 282 µM)
MIC E. coli lpxC [3]: 125 mg/L (≈ 282 µM)
Apparent rate constant ka, tripeptide bond formation (E. coli 70S ribosome): about 4 s^−1
Apparent rate constant ka, dipeptide bond formation (E. coli 70S ribosome): about 14 s^−1
Inhibition of dipeptide or tripeptide formation (E. coli 70S ribosome): no inhibition
Bacteriostatic or bactericidal, time-kill [4]: bactericidal
Kd (E. coli RF2): 37 µM
Kd (RF1 from E. coli): 44.6 µM
IC50 (RF2): 180 µM
Ki (RF2): 12 µM
